Values of other authors as cited in publication PMC10860182 (ACS Medicinal Chemistry Letters, 2024).
pEC50: −log10 of the molar value.

Tested on: 5-HT2C
Details: literature value ref 37, cited from earlier work

In the case of `COc1ccc2[nH]cc(CCN(C)C)c2c1` [Compound 5-MeO-DMT, 5-methoxy-N,N-dimethyltryptamine], the “5-HT2C % Max” value is given as 84%, the “5-HT2C pEC50” value is given as 7.44 and the pEC50 (read-out: 5-HT2C EC50) is given as 7.51.
